Data reported in ChEMBL document CHEMBL5625280, “Discovery of novel nucleoside derivatives as selective lysine acetyltransferase p300 inhibitors for cancer therapy” (Bioorg Med Chem Lett, 2024).

Protein sequences, listed by entry. Tags and fused reporters are not part of them.
UniProt Q09472, whole entry: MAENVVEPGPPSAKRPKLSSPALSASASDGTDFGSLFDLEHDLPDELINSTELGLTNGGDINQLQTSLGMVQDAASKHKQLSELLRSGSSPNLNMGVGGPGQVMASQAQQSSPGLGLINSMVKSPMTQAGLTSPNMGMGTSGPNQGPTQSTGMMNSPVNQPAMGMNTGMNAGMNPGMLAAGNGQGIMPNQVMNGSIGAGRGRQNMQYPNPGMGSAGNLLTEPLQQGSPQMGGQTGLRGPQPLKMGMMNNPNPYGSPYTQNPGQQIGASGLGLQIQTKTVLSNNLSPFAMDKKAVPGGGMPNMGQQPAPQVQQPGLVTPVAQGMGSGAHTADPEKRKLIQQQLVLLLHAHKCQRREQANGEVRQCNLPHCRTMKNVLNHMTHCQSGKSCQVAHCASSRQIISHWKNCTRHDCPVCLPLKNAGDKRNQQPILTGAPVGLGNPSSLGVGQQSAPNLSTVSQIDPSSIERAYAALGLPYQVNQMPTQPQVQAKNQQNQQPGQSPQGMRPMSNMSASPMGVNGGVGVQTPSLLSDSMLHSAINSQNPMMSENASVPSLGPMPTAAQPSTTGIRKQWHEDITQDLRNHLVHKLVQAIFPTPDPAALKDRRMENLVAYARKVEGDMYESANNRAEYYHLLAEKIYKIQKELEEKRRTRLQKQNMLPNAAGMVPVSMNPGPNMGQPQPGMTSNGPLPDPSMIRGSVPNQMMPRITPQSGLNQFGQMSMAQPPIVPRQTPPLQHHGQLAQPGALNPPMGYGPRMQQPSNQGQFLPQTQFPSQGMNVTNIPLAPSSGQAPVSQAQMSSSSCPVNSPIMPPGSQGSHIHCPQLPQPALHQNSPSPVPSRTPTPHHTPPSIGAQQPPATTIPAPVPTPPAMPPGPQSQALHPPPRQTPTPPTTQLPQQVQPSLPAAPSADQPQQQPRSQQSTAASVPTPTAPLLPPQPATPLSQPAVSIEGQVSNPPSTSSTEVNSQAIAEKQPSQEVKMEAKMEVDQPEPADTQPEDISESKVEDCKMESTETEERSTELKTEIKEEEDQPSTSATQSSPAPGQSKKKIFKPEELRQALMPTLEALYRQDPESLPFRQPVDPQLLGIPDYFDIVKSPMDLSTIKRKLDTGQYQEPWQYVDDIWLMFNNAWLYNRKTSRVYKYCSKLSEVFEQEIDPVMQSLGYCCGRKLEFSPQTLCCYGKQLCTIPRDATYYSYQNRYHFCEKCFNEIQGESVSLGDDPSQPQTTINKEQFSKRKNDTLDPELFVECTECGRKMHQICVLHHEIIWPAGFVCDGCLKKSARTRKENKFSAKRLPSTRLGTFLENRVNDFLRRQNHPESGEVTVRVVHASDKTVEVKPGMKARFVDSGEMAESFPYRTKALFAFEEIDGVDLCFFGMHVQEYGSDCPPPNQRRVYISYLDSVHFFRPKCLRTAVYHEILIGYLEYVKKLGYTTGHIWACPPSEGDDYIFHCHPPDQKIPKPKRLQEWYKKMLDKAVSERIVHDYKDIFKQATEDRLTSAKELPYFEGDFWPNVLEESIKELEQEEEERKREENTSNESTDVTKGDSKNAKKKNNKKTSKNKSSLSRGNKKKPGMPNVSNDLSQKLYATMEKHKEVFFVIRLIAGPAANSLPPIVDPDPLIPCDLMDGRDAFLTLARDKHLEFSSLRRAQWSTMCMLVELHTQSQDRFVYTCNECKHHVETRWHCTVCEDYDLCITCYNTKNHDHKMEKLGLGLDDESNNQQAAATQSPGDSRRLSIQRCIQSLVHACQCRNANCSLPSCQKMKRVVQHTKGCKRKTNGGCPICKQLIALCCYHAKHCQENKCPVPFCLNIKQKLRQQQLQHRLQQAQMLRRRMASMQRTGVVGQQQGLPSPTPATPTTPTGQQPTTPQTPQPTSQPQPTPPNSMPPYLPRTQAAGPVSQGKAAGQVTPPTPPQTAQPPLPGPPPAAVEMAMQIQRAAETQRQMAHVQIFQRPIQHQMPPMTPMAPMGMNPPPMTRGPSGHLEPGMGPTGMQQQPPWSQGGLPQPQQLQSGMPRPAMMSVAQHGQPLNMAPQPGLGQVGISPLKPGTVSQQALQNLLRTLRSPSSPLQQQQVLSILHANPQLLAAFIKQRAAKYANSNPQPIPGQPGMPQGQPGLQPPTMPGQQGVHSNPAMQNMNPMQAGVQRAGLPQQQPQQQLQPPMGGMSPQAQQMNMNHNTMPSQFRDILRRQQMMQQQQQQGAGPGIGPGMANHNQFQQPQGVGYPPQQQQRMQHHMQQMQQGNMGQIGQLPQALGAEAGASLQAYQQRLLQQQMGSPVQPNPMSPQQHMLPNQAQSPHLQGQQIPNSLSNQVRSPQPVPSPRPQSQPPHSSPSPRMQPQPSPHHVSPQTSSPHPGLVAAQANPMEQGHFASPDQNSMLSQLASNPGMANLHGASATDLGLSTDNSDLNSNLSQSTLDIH

Target: Histone acetyltransferase p300 (Homo sapiens, UniProt Q09472)

CO[C@H]1CC[C@H](n2c([C@@H]3CCCC(=O)N3c3ccc(F)c(F)c3)nc3cc(-c4c(C)noc4C)ccc32)CC1 [INOBRODIB]
IC50: 0.064 µM
